Data published in publication PMC7000199, “Indirubin derivatives are potent and selective anti-Trypanosoma cruzi agents” (Virulence, 2018).

System: murine macrophages J774.1
Experiment: Cytotoxicity to mammalian cells (Alamar Blue)
Assay type: cell-based, mouse
Protocol: Mouse macrophages (J774.1 cell line) were seeded into 96-well plates at a cell number 1 × 10^4 cells/well in DMEM medium supplemented with 10 % of FBS and incubated for 24 h at 37°C and 5% CO2. Samples were then added at eight concentrations (ranging from 0.078 to 10 µM) in triplicate, and incubated for 72 h, followed by the addition of 20 µL/well of Alamar Blue (Invitrogen; Catalog number: DAL1025). Colorimetric readings were performed 24 h later at 570 and 600 nm. CC50 values were calculated using data-points gathered from three independent experiments. Benznidazole was tested in concentrations ranging from 0.78 to 100 µM.
To determine the cytotoxicity concentration 50% of J774.1 (CC50) and the effective concentration 50% (EC50) of the trypomastigotes and amastigotes forms of T. cruzi, we used nonlinear regression. The selectivity index (SI) was defined as the ratio of CC50 by EC50 (trypomastigotes). The one-way ANOVA followed by Bonferroni’s multiple comparison test was used to determine the statistical significance of the group comparisons in the in vitro infection and in vivo studies. Results were considered statistically significant when P < 0.05. All analyzes were performed using Graph Pad Prism version 5.01

With 3ʹpiperazine-6-BIO [Compound 11] the “cytotoxicity against murine macrophages J774.1 (in words)” value was “lower cytotoxicity” and the CC50 (J774.1 cell viability, 72 h post-treatment) was 6.25 µM.
